Among the data in ChEMBL document CHEMBL1135048, “Synthesis and biological evaluation of 2-indolyloxazolines as a new class of tubulin polymerization inhibitors. Discovery of A-289099 as an orally active antitumor agent” (Bioorg Med Chem Lett, 2002) are Ki values, retold here.

The chains behind the UniProt entries cited, without tags or fusion partners.
UniProt Q6B856, whole entry: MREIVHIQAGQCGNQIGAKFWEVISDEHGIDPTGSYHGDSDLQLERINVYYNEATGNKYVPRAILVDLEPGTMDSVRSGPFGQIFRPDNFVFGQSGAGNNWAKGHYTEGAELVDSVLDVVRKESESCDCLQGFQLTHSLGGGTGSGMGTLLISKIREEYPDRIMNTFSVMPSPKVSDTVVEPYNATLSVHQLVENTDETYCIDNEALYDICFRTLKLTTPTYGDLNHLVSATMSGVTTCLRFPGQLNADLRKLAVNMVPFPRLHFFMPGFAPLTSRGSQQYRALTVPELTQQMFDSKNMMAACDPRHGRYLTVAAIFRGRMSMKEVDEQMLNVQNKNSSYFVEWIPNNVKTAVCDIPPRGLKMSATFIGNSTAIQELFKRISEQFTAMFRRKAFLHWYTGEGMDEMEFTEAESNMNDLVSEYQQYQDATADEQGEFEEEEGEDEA

The target in the assay is Tubulin beta chain (Bos taurus, UniProt Q6B856). The experiment in a line: Binding constant at colchicine site of bovine brain tubulin.

Each structure is given as a SMILES string. pKi: −log10 of the molar value.

In turn, `COc1cc([C@@H]2CN=C(c3ccc4c(ccn4C)c3)O2)cc(OC)c1OC` gave a pKi of 5.43.

For `COc1cc([C@H]2CN=C(c3ccc4c(ccn4C)c3)O2)cc(OC)c1OC`, the pKi was 6.20.

For orientation: pKi means the Ki on a negative log10 scale, so that one unit is a factor of ten. A higher pKi goes with a small Ki.
